Results on 12 compounds are retold here after patent EP1005446B1, “N-AROYLPHENYLALANINE DERIVATIVES” (priority 1997, dated 1999).

The chains behind the UniProt entries cited, without tags or fusion partners. Residues count along the entry.
UniProt P05556, 21-798 limits assumed: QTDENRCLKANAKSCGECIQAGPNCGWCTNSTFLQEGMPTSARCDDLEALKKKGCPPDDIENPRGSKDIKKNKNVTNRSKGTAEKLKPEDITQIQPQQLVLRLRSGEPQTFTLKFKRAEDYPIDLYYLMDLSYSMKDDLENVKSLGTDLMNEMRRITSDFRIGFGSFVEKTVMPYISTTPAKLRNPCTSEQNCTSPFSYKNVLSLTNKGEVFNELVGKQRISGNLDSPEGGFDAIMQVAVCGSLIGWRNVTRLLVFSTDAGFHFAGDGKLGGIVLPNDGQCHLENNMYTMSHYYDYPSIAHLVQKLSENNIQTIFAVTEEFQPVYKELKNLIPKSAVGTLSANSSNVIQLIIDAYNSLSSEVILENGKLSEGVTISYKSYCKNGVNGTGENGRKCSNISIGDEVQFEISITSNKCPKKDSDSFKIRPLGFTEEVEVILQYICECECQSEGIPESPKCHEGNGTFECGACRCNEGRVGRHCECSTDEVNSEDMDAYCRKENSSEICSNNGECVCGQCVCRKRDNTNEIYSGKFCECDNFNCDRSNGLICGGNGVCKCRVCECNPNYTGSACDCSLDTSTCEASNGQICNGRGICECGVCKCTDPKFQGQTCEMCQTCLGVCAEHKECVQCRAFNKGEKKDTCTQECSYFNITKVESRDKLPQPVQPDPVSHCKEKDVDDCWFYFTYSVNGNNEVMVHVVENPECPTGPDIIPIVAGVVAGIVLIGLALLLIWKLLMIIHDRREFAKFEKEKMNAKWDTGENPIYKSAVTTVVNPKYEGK
UniProt P13612, 34-1032 limits assumed: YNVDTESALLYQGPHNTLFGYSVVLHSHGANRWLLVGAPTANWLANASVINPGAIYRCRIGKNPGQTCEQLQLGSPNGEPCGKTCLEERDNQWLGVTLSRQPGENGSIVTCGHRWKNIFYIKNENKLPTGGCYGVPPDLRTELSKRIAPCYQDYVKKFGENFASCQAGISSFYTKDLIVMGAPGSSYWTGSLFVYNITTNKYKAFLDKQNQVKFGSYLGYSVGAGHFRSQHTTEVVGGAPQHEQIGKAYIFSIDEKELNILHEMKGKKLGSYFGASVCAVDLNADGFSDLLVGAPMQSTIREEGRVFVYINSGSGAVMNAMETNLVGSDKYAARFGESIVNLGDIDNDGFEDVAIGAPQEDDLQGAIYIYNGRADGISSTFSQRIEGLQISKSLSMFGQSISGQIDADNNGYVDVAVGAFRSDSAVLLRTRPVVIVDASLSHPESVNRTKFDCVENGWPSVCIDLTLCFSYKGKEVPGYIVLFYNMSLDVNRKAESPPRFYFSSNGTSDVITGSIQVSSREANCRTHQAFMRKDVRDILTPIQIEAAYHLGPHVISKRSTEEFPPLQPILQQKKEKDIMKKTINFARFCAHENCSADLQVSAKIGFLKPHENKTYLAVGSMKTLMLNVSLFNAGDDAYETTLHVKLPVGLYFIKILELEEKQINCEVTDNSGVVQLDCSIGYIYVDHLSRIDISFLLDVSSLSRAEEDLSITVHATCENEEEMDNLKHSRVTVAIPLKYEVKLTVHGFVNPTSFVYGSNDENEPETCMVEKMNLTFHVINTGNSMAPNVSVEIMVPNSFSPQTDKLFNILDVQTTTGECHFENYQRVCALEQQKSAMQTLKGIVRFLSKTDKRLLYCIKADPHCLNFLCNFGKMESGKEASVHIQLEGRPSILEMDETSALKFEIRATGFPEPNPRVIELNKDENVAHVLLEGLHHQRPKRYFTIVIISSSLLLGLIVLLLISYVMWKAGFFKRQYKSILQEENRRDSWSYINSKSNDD

The first experiment concerns the target T1, VLA-4 (α4β1 integrin) (Homo sapiens, UniProt P05556+P13612). Kind of experiment: VLA-4 / VCAM-1 Screening Assay (solid-phase, dual antibody ELISA). Conditions: read-out: IC50 nM; inhibition of binding of Ramos cell-derived VLA-4 to immobilized recombinant human VCAM-1.
The IC50 is the concentration that gives 50% inhibition. As to `COCCC1(C(=O)N[C@@H](Cc2ccc(N3C(=O)[C@H](CC(C)C)N(C(C)=O)C3c3ccccc3)cc2)C(=O)O)CCCC1` (single isomer, unassigned) [Example 128], the IC50 turned out to be 5 nM.
Turning to `CC1(C)C2CCC1(C)C(C(=O)O)C2C(=O)N[C@@H](Cc1ccc(NC(=O)c2ccnc3ccccc23)cc1)C(=O)O` (stereo partly drawn), the IC50 amounted to 13.6 nM.
With `Cc1cc(C)c(S(=O)(=O)Nc2ccc(C[C@H](NC(=O)C3(C)CC3(Cl)Cl)C(=O)O)cc2)c(C)c1` (stereo partly drawn), the IC50 was found to be 43 nM.
Still for that read-out and setting: for `O=C(Cc1ccccc1)NCCC1(C(=O)N[C@@H](Cc2ccc(NC(=O)c3c(Cl)cccc3Cl)cc2)C(=O)O)CCCC1` the value was 2.5 nM.
Same read-out and setting: with `COCCC1(C(=O)N[C@@H](Cc2ccc(N3C(=O)[C@@H](CC(C)C)N(C(C)=O)C3c3ccccc3)cc2)C(=O)O)CCCC1` (single isomer, unassigned) [135] the figure was 17 nM; with `COc1ccc(CC2(C(=O)N[C@@H](Cc3ccc(NC(=O)CCN4CCCCC4)cc3)C(=O)O)CCCC2)cc1`, 0.96 nM.
In the case of `O=C(CCN1CCCCC1)Nc1ccc(C[C@H](NC(=O)C23CC4CC(CC(C4)C2)C3)C(=O)O)cc1`, the half-maximal inhibitory concentration (IC50) stood at 7.3 nM.
Still for that read-out and setting: with `COCCC1(C(=O)N[C@@H](Cc2ccc(N3C(=O)[C@@H](CC(C)C)N(C(C)=O)C3c3ccccc3)cc2)C(=O)O)CCCC1` (single isomer, unassigned) [134] the figure was 0.19 nM; with `COCCC1(C(=O)N[C@@H](Cc2ccc(N3C(=O)[C@H](CC(C)C)N(C(C)=O)C3c3ccccc3)cc2)C(=O)O)CCCC1` (single isomer, unassigned) [129], 153 nM.

The same experiment, now with this note: read-out: IC50 nM; inhibition of binding of Ramos cell-derived VLA-4 to immobilized recombinant human VCAM-1; tested form: Na salt.
With `O=C(Nc1ccc(C[C@H](NC(=O)C2(c3ccccc3)CCCC2)C(=O)O)cc1)c1ccccc1`, the IC50 was found to be 22.6 nM.
Turning to `O=C(Nc1ccc(C[C@H](NC(=O)C2(c3ccccc3)CCCC2)C(=O)O)cc1)c1ccc[n+]([O-])c1`, the IC50 came to 3.6 nM.

For the next experiment, the target named is T1, VLA-4 (α4β1 integrin). Kind of experiment: Ramos (VLA-4) / VCAM-1 Cell-Based Screening Assay (Ramos-VCAM-1 cell adhesion assay). Conditions: read-out: IC50 in Ramos Cell Based Assay; Ramos cells binding to immobilized VCAM-1.
In the case of `COc1ccc(C[C@@H]2C(=O)N(c3ccc(C[C@H](NC(=O)C4(CCNC(C)=O)CCCC4)C(=O)O)cc3)C(c3ccccc3)N2C(=O)CCC(=O)O)cc1` (single isomer, unassigned), the IC50 came out at 1.8 nM.
